The nature of experiment [1]: Selectivity ratio of IC50 for rat mGluR5 to IC50 for human mGluR1.
For experiment [2], the species on record is Homo sapiens. The experiment in a line: Selectivity ratio of mGluR6 (unknown origin) to human mGluR1.
The species named for experiment [3] is Homo sapiens. The experiment in a line: Selectivity ratio of mGluR8 (unknown origin) to human mGluR1.
Experiment [4] is filed under the species Homo sapiens. The experiment can be described thus: Selectivity ratio of mGluR3 (unknown origin) to human mGluR1.
The species entered for experiment [5] is Homo sapiens. The experiment in a line: Selectivity ratio of mGluR7 (unknown origin) to human mGluR1.
The species named for experiment [6] is Homo sapiens. The experiment can be described thus: Selectivity ratio of mGluR5 (unknown origin) to human mGluR1.
Experiment [7] is filed under the species Homo sapiens. The experiment can be described thus: Selectivity ratio of mGluR2 (unknown origin) to human mGluR1.
Experiment [8] is filed under the species Homo sapiens. The experiment in a line: Selectivity ratio of mGluR4 (unknown origin) to human mGluR1.

For the compound `C[C@@H]1CN(c2ccccn2)CCN1C(=O)C12CC3CC(CC(C3)C1)C2`, the Ratio IC50 in experiment [1] is over 60.

Consider `C[C@@H]1CN(C(=O)C23CC4CC(CC(C4)C2)C3)CCN1c1ccccn1`, for which the Ratio IC50 in experiment [1] is over 60.

Turning to `C[C@@H]1CN(c2cccnc2C#N)CCN1C(=O)C12CC3CC(CC(C3)C1)C2`, the Selectivity ratio in the experiment filed under Homo sapiens [2], in the experiment filed under Homo sapiens [3], in the experiment listed under Homo sapiens [4], in the experiment filed under Homo sapiens [5], in the experiment listed under Homo sapiens [6] and in the experiment listed under Homo sapiens [7] was 100 each time. The Selectivity ratio in the experiment listed under Homo sapiens [8] came out at 100.

The record behind these values is ChEMBL document CHEMBL2396646, “N-Acyl-N'-arylpiperazines as negative allosteric modulators of mGlu1: identification of VU0469650, a potent and selective tool compound with CNS exposure in rats” (Bioorg Med Chem Lett, 2013).
